Results taken from article PMC5846678 (Bioorganic & medicinal chemistry letters, 2017).

Key:
[1] = cited from earlier work
IGF1R/IR = assay: biodistribution in rats 120 min post injection; assay type: in vivo, Sprague-Dawley rats

clearance from blood (IGF1R/IR): largely cleared
Structure (SMILES): C[C@@]1(C(=O)Nc2ccc([18F])nc2)CCCN1c1nc(Nc2cc(C3CC3)[nH]n2)c2cccn2n1 [[^18F]BMS-754807]
logP [1]: 2.8
